Assay results as given in PubChem BioAssay AID488839 (Broad Institute, 2010).
Only a part is listed here, and it is no random draw. Some of these compounds have results that are not shown, active ones among them. Activity calls are given as the source filed them.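 How the source made its calls: active means highest replicate inhibition of at least 50% and at least 75% of replicates reaching 50%; inconclusive means only one of the two criteria met; inactive means both criteria failed.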

Sequences of proteins named here, by UniProt entry; tags and fusion partners are left off.
UniProt Q00535, whole entry, looked up: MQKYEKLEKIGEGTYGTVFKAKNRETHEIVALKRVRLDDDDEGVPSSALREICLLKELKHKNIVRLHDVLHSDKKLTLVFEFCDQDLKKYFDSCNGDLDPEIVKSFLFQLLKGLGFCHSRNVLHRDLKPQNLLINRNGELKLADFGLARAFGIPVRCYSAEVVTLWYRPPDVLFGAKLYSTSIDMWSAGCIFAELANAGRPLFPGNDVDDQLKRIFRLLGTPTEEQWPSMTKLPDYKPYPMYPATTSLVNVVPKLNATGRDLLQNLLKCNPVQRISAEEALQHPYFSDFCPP
UniProt Q15078, whole entry, looked up: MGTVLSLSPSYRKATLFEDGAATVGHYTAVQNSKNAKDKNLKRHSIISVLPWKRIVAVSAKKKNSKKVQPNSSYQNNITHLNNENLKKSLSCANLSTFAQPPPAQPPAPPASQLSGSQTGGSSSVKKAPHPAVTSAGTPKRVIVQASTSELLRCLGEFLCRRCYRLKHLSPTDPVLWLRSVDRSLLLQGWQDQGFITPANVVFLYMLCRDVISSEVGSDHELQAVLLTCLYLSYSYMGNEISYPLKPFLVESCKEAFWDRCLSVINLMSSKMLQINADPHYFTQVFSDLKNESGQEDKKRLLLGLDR

Biological target: Cyclin-dependent kinase 5 (Homo sapiens) + Cyclin-dependent kinase 5 activator 1 (Homo sapiens) (UniProt Q00535+Q15078)
Assay: inhibitors of human CDK5/p35 kinase, primary screen, biochemical, single concentration (AID 488839);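 further: plate controls were DMSO neutral control for no effect and GW8510 at 10 µM for full effect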
Conditions: Recombinant CDK5/p35, ADP-Glo luminescence, 60 min; at 10 µM; active compounds read high

Structure (SMILES)	inhibition
COc1cccc(C(=O)NCC2(N3CCCCC3)CCCCC2)c1	inactive: 0.689%
COc1ccc(Cl)cc1C(=O)NCC1(N(C)C)CCCCC1	inactive: -0.454%
O=C(NCC1(N2CCCCC2)CCCCC1)c1cccc(Cl)c1	inactive: 1.55%
CN(C)C1(CNC(=O)c2ccc(Br)cc2)CCCCC1	inactive: -0.31%
COc1cc(C(=O)NCC2(N(C)C)CCCCC2)c([N+](=O)[O-])cc1OC	inactive: -0.445%
COc1ccc(Br)c(C(=O)NCC2(N3CCCCC3)CCCCC2)c1	inactive: -4.33%
CC(C)Oc1ccc(C(=O)NCC2(N(C)C)CCCCC2)cc1	inactive: 0.983%
O=C(OCCN1CCCC1)C(O)(c1ccccc1)c1ccccc1	inactive: -0.8%
CN(C)c1cccc(C(=O)NCC2(N(C)C)CCCCC2)c1	inactive: 1.49%
O=C(OC1CN2CCC1CC2)C(CO)(c1ccccc1)c1ccccc1 (stereo not given)	inactive: -0.711%
CCN(CC)CC(C)C(C)OC(=O)C(O)(c1ccccc1)c1ccccc1 (stereo not given)	inactive: 0.389%
COc1cc(SC)ccc1C(=O)NCC1(N(C)C)CCCCC1	inactive: -0.918%
CC(C)N1C(=O)CC2(CCN(CCOC(=O)C(O)(c3ccccc3)c3ccccc3)CC2)C1=O	inactive: -0.851%
Cc1ccc(C(=O)NCC2(N3CCCCC3)CCCCC2)cc1	inactive: 0.482%
O=C(NCC1(N2CCCCC2)CCCCC1)c1cc([N+](=O)[O-])ccc1Cl	inactive: 2.47%
CN1[C@@H]2CC[C@H]1CC(OC(=O)C(O)(c1ccccc1)c1ccccc1)C2 (stereo not given in full)	inactive: -1.09%
C=CCN1CCN(CCOC(=O)C(O)(c2ccccc2)c2ccccc2)CC1	inactive: 0.289%
O=C(NCC1(N2CCCCC2)CCCCC1)c1cc(F)c(F)cc1Cl	inactive: -0.53%
COc1ccc(C(=O)NCC2(N(C)C)CCCCC2)cc1	inactive: 0.638%
CCN1CCCC(OC(=O)C2(O)c3ccccc3C=Cc3ccccc32)C1 (stereo not given)	inactive: 2.6%
Cc1cc(C(=O)NCC2(N3CCCCC3)CCCCC2)ccc1[N+](=O)[O-]	inactive: 1.56%
O=C(NCC1(N2CCCCC2)CCCCC1)c1cccc(Br)c1	inactive: -0.549%
Cc1ccccc1C(=O)NCC1(N2CCCCC2)CCCCC1	inactive: 1.04%
CN(C)c1ccc(C(=O)NCC2(N(C)C)CCCCC2)cc1	inactive: 0.611%
CN(C)C1CCCC1OC(=O)C(O)(c1ccccc1)c1ccccc1 (stereo not given)	inactive: 2.25%
